OPERA 2.9 data: melting point values

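The numbers are reported measurements, compiled and curated for the OPERA QSAR suite. The files give a single number for a compound and property, which may rest on several reports. Method, purity and exact conditions of the single measurements are not given. The measured form (salt, isomer or mixture) is not always the one drawn. Some entries may be limits or estimates that an upstream database listed as plain numbers.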

Melting points are in °C.
"via" names the databases from which the curators took the value.

{"smiles": "O=C(CCl)NC1CCOc2ccccc21", "stereo": "stereo unspecified", "name": "2-chloro-N-3,4-dihydro-2H-chromen-4-ylacetamide", "mp (°C)": "87", "via": "OCHEM"}
{"smiles": "CCC(F)(F)C(F)(F)C(F)(F)C(F)(F)C(F)(F)C(F)(F)C(F)(F)C(F)(F)C(F)(F)C(F)(F)F", "mp (°C)": "26.9", "via": "ChemicalBook"}
{"smiles": "O=C(CC(=O)Nc1ccccc1)Nc1ccccc1", "name": "Propanediamide, N,N'-diphenyl-", "mp (°C)": "221", "via": "OCHEM"}
{"smiles": "CNc1ccc(N(CCO)CCO)cc1[N+](=O)[O-]", "name": "HC Blue 1", "mp (°C)": "102.8", "via": "PubChem"}
{"smiles": "CN1CCC2(CC1)NC(=O)NC2=O", "name": "1,3,8-Triazaspiro(4.5)decane-2,4-dione, 8-methyl-", "mp (°C)": "284", "via": "OCHEM"}
{"smiles": "Cc1ccc(-c2cc(C(=O)O)[nH]n2)cc1", "name": "3-(4-methylphenyl)-1H-pyrazole-5-carboxylic acid", "mp (°C)": "252", "via": "OCHEM"}
{"smiles": "CCN(c1ccccc1)c1nc(Cl)nc(Nc2cc(S(=O)(=O)[O-])cc3cc(S(=O)(=O)[O-])c(/N=N/c4ccc5ccccc5c4S(=O)(=O)[O-])c(O)c23)n1.[Na+].[Na+].[Na+]", "mp (°C)": "153", "via": "eChemPortal"}
{"smiles": "CCOC(=O)Nc1ccc(N)cc1", "name": "Ethyl (4-aminophenyl)carbamate", "mp (°C)": "74", "via": "OCHEM"}
{"smiles": "NNC(=O)c1c[nH]c2ccccc12", "name": "Indole-3-carboxylic acid, hydrazide", "mp (°C)": "230", "via": "OCHEM"}
{"smiles": "Cc1sc(C(=O)O)cc1[N+](=O)[O-]", "name": "5-methyl-4-nitrothiophene-2-carboxylic acid", "mp (°C)": "98", "via": "OCHEM"}
{"smiles": "CC(=O)N1CCC(N)CC1", "name": "1-acetylpiperidin-4-amine", "mp (°C)": "20", "via": "OCHEM"}
{"smiles": "O=C(c1ccc(Cl)cc1Cl)N1CCNCC1", "name": "1-(2,4-dichlorobenzoyl)piperazine", "mp (°C)": "109", "via": "OCHEM"}
{"smiles": "NC(=O)Nc1cccc(C(=O)O)c1", "name": "3-Ureidobenzoic acid", "mp (°C)": "270", "via": "OCHEM"}
{"smiles": "CC(=O)c1csc(N)n1", "name": "1-(2-aminothiazol-4-yl)ethanone", "mp (°C)": "171", "via": "OCHEM"}
{"smiles": "Nc1nc2ccccc2n2nnnc12", "name": "1,2,3,5,9b-Pentaaza-cyclopenta[a]naphthalen-4-ylamine", "mp (°C)": "290", "via": "OCHEM"}
{"smiles": "CC(C)(C)C(=O)Nc1ccc2nn(C3CCCC3)nc2c1", "mp (°C)": "136", "via": "OCHEM"}
{"smiles": "CCCCCCCC(=O)CCc1ccc(O)c(OC)c1", "name": "6-Paradol", "mp (°C)": "31.5", "via": "PubChem"}
{"smiles": "Cc1c(-c2ccccc2)nc2ccccc2c1C(=O)O", "name": "3-methyl-2-phenylquinoline-4-carboxylic acid", "mp (°C)": "236", "via": "OCHEM"}
{"smiles": "Nc1cccc(-c2ccn[nH]2)c1", "name": "3-(1H-pyrazol-3-yl)aniline", "mp (°C)": "138", "via": "OCHEM"}
{"smiles": "O=C(O)CCCN1C(=O)CCC1=O", "name": "4-(2,5-dioxopyrrolidin-1-yl)butanoic acid", "mp (°C)": "103", "via": "OCHEM"}
{"smiles": "S=c1ccc(Cl)n[nH]1", "name": "6-chloropyridazine-3-thiol", "mp (°C)": "149", "via": "OCHEM"}
{"smiles": "O=C(O)c1ccc(CSc2ccc(Cl)cc2)cc1", "name": "4-{[(4-Chlorophenyl)sulfanyl]methyl}benzoic acid", "mp (°C)": "183", "via": "OCHEM"}
{"smiles": "Cc1c(C(=O)O)oc2c1C(=O)CCC2", "mp (°C)": "228", "via": "OCHEM"}
{"smiles": "Cc1ccc(=S)[nH]c1", "name": "5-methylpyridine-2-thiol", "mp (°C)": "200", "via": "OCHEM"}
{"smiles": "O=C(NC(Cc1ccccc1)C(=O)O)c1ccc(Cl)cc1", "stereo": "stereo unspecified", "name": "2-[(4-chlorobenzoyl)amino]-3-phenylpropanoic acid", "mp (°C)": "196", "via": "OCHEM"}
{"smiles": "BrCCCCCCCCCCCBr", "name": "1,11-Dibromoundecane", "mp (°C)": "166", "via": "OCHEM"}
{"smiles": "CC(=O)c1ccc2cccc3c2c1CC3", "name": "1-(1,2-Dihydroacenaphthylen-3-yl)ethan-1-one", "mp (°C)": "105", "via": "OCHEM"}
{"smiles": "Nc1nc(-c2c[nH]c3ccccc23)cs1", "name": "4-(1H-indol-3-yl)-1,3-thiazol-2-amine", "mp (°C)": "168", "via": "OCHEM"}
{"smiles": "O=C1Cc2ccccc2C(=O)N1", "name": "Isoquinoline-1,3(2H,4H)-dione", "mp (°C)": "191", "via": "OCHEM"}
{"smiles": "CCOc1ccc(OCC(=O)O)cc1", "name": "4-Ethoxyphenoxyacetic acid", "mp (°C)": "128", "via": "OCHEM"}
{"smiles": "CC(=O)OC[C@H]1O[C@H](Br)[C@H](OC(C)=O)[C@@H](OC(C)=O)[C@@H]1OC(C)=O", "name": "Acetobromglucose", "mp (°C)": "88.5", "via": "OCHEM"}
{"smiles": "NC(=O)CCNC(=O)OCc1ccccc1", "name": "benzyl N-(2-carbamoylethyl)carbamate", "mp (°C)": "165", "via": "OCHEM"}
{"smiles": "O=C1CC2(CCCC2)C(=O)O1", "name": "2-oxaspiro[4.4]nonane-1,3-dione", "mp (°C)": "34", "via": "OCHEM"}
{"smiles": "COc1cc(C#N)ccn1", "name": "2-methoxyisonicotinonitrile", "mp (°C)": "95", "via": "OCHEM"}
{"smiles": "O=C1Nc2cc(F)ccc2C1=O", "name": "6-Fluoroisatin", "mp (°C)": "185", "via": "OCHEM"}
{"smiles": "CCC(=O)NC(C)C(=O)O", "stereo": "stereo unspecified", "name": "N-(1-Oxopropyl)alanine", "mp (°C)": "90", "via": "OCHEM"}
{"smiles": "Cn1nc2ccc(NC(=O)c3ccc(Cl)cc3)cc2n1", "name": "4-Chloro-N-(2-methyl-2H-benzotriazol-5-yl)benzamide", "mp (°C)": "229", "via": "OCHEM"}
{"smiles": "CC(=O)c1c(C)nc2sccn12", "name": "1-(6-Methylimidazo[2,1-b][1,3]thiazol-5-yl)ethan-1-one", "mp (°C)": "133", "via": "OCHEM"}
{"smiles": "Cn1c(-c2ccco2)n[nH]c1=S", "name": "5-(2-furyl)-4-methyl-4H-1,2,4-triazole-3-thiol", "mp (°C)": "180", "via": "OCHEM"}

Again, the 2 entries with the lowest mp:

{"smiles": "CC(=O)N1CCC(N)CC1", "name": "1-acetylpiperidin-4-amine", "mp (°C)": "20", "via": "OCHEM"}
{"smiles": "CCC(F)(F)C(F)(F)C(F)(F)C(F)(F)C(F)(F)C(F)(F)C(F)(F)C(F)(F)C(F)(F)C(F)(F)F", "mp (°C)": "26.9", "via": "ChemicalBook"}

Values as listed in the OPERA 2.9 repository of K. Mansouri.